{"source": "patent US5968513A", "about": "(priority 1996, dated 1999)", "key": {"[1]": {"assay": "hCG preparation in normal uninfected monkeys (CD4+ T cells, weight)", "format": "in vivo, monkey", "settings": "2 uninfected treated animals, increasing from 460 and from 470; hCG (APL) per FIG. 1D legend", "source_text": "SIV was given intravenously at a dose of 10^4.5 TCID50 per ml. (A) SIV titer was monitored over time in months by quantifying the p27 gag protein (Organon Teknika assay) as nanograms (ng) of p27/ml of plasma from the plasma of the SIV infected macaques. […] Plasma levels of p27 gag in these treated monkeys are indicated on the graph by lines with diamonds, number (#) signs or filled circles. Results with the untreated SIV-infected macaques (indicated UnRx) are indicated by the lines with either stars or triangles. […] (C) Change in weight in kilograms (kg) was monitored in treated and untreated SIV-infected monkeys over time in months. […] CD4^+ T cell levels in the untreated monkeys are indicated by lines with sun-like figures or squares, and the results in the treated monkeys are indicated by lines with pentagonal figures or with filled inverted triangles.\nIn FIG. 1D, results are shown from 4 uninfected controls. […] There is a slight increase in the CD4^+ T cells in the treated animals (increasing from 460 mm^3 to 520 mm^3 and from 470 mm^3 to 650 mm^3) (FIG. 1D)."}, "SIVmac251": {"tested_on": "SIVmac251", "assay": "Effects of hCG preparation in SIV infected rhesus monkeys", "format": "in vivo, rhesus monkey", "settings": "for Weight gain / SIV p27 antigen in plasma / CD4^+ T cells: SIVmac251 infected rhesus monkeys, 3 treated; for Weight gain / CD4^+ T cells: 3,000 IU 2 times weekly; for SIV p27 antigen in plasma: 3,000 IU 2 times weekly (6,000 IU per week) from 3 weeks after inoculation, followed 7 months; for CD4^+ T cells: maintained over 7 months"}, "Kaposi's sarcoma [2]": {"tested_on": "Kaposi's sarcoma", "settings": "cited from earlier work; for dose dependent effect, regression of treated KS lesions: California patients (Gill et al., 1996)"}, "Kaposi's sarcoma [3]": {"tested_on": "Kaposi's sarcoma", "assay": "Kaposi's sarcoma response of patients treated with hCG preparations", "format": "in vivo, human", "settings": "for KS response described in text: individual patients or patient groups on hCG; for KS response: individual patients, Table 2; for clearance of visceral (lung and gastrointestinal) KS: very advanced disease, systemic therapy, within 1 to 3 months of initiating therapy"}, "[4]": {"assay": "hCG weekly dosing in mice", "format": "in vivo", "settings": "300-500 I.U. weekly"}, "[5]": {"tested_on": "hematopoietic cell proliferation", "assay": "Comparison of commercial hCG preparations on hematopoietic cell proliferation in vitro and in vivo"}, "[6]": {"tested_on": "Hematopoietic progenitor cells from normal bone marrow and cord blood", "assay": "Clonogenic (colony) assays of hematopoietic progenitor cells in methylcellulose (CFU-MIX, BFU-e, CFU-GM)", "format": "cell-based, human", "settings": "hCG preparations 200 IU/ml, subunits and peptides 100 μg/ml, 10 days, aggregates of more than 50 cells counted", "source_text": "Hematopoietic progenitor cells (2×10^5 cell/ml) were isolated from normal bone marrow and cord blood and seeded in methylcellulose. […] Aggregates containing more than 50 cells after 10 days of culture were counted as colonies."}}, "note": "Where “and” joins values, the source holds several entries; their conditions need not be identical. Equal values may be shown once. Entries after “also recorded” stand apart in the source; their conditions may differ. Read-outs that look alike come from different tables or passages of the source.", "data": [{"substance": "Human Chorionic Gonadotropin [hCG]", "values": [{"measurement": "CD4^+ T cells after treatment", "setting": "[1]", "value": "520 mm^3 and 650 mm^3"}, {"measurement": "effectiveness of weekly hCG doses in monkeys", "setting": "SIVmac251; 6,000 I.U. weekly", "value": "effective"}, {"measurement": "Weight gain", "setting": "SIVmac251", "value": "weight gain"}, {"measurement": "SIV p27 antigen in plasma", "setting": "SIVmac251", "value": "reduction of SIV in plasma"}, {"measurement": "CD4^+ T cells", "setting": "SIVmac251", "value": "increase in CD4^+ T cells"}, {"measurement": "dose dependent effect, regression of treated KS lesions", "setting": "Kaposi's sarcoma [2]; intralesional hCG 250 IU", "value": 16, "unit": "%"}, {"measurement": "dose dependent effect, regression of treated KS lesions", "setting": "Kaposi's sarcoma [2]; intralesional hCG 2,000 IU", "value": 83, "unit": "%"}, {"measurement": "partial or complete regression of treated lesions, patients", "setting": "Kaposi's sarcoma [2]; low dose intralesional hCG, initial pilot study in Belgium (Hermans et al., 1995)", "value": "3 of the first 4 patients"}, {"measurement": "KS response described in text", "setting": "Kaposi's sarcoma [3]", "value": "responded; also recorded: complete regression; also recorded: exhibited a KS response; also recorded: partial responses; also recorded: did not respond; also recorded: stabilization of pulmonary disease; also recorded: complete response; also recorded: dramatically improved their pulmonary function test; also recorded: regression of KS lesions was observed"}, {"measurement": "patients with marked responses", "setting": "Kaposi's sarcoma [3]; of 10 patients with advanced disease treated systemically, 15,000 to 30,000 IU", "value": 6}, {"measurement": "additional patients with KS responses by ACTGO criteria", "setting": "Kaposi's sarcoma [3]; of 15 protocol patients from the Belgium trial", "value": 4}, {"measurement": "patients with substantial anti-KS effect / regression of KS disease", "setting": "Kaposi's sarcoma [3]; systemic protocol 35,000 IU/week, patients followed for more than 4 months", "value": "4 of the 5 patients and 4 of 5 patients"}, {"measurement": "effectiveness of weekly hCG doses in mice", "setting": "[4]", "value": "effective"}]}, {"substance": "Pregnyl: commercial hCG preparation Pregnyl, Organon", "values": [{"measurement": "KS response described in text", "setting": "Kaposi's sarcoma [3]", "value": "regression of recurrent cutaneous KS"}, {"measurement": "KS response", "setting": "Kaposi's sarcoma [3]; listed as P", "value": "Stable"}, {"measurement": "clearance of visceral (lung and gastrointestinal) KS", "setting": "Kaposi's sarcoma [3]", "value": "striking clearance"}, {"measurement": "relative effectiveness among (non-recombinant) commercial hCG preparations", "setting": "[5]", "value": "the next most effective"}]}, {"substance": "hCG (APL): commercially available partially purified hCG preparation APL, Wyeth Ayerst", "values": [{"measurement": "Weight gain", "setting": "SIVmac251", "value": "2 to 4", "unit": "kg"}, {"measurement": "SIV p27 antigen in plasma", "setting": "SIVmac251", "value": "marked decrease"}, {"measurement": "CD4^+ T cells", "setting": "SIVmac251", "value": "increase in CD4^+ T cells to normal levels"}, {"measurement": "evidence of disease or SIV resistance to the hCG preparation", "setting": "SIVmac251; followed for 7 months", "value": "no evidence of disease or SIV resistance"}, {"measurement": "KS response", "setting": "Kaposi's sarcoma [3]; listed as A", "value": "Stable"}, {"measurement": "clearance of visceral (lung and gastrointestinal) KS", "setting": "Kaposi's sarcoma [3]", "value": "striking clearance"}, {"measurement": "growth of hematopoietic progenitors (pro-hematopoietic activity, colony numbers)", "setting": "[6]", "value": "directly promoted"}, {"measurement": "growth of hematopoietic progenitors (pro-hematopoietic activity, colony numbers)", "setting": "[6]; listed as native partially purified hCG heterodimer", "value": "considerable pro-hematopoietic activity"}, {"measurement": "relative effectiveness among (non-recombinant) commercial hCG preparations", "setting": "[5]; listed as APL", "value": "usually more active"}, {"measurement": "relative effectiveness among (non-recombinant) commercial hCG preparations", "setting": "[5]; listed as hCG from APL (Wyeth-Ayerst)", "value": "the next most effective"}]}, {"substance": "hCG from Fujisawa: (non-recombinant) commercial hCG preparation from Fujisawa", "values": [{"measurement": "relative effectiveness among (non-recombinant) commercial hCG preparations", "setting": "[5]", "value": "the most effective"}]}, {"substance": "pure hCG heterodimer (CR127): purified hCG heterodimer CR 127, highly purified hCG preparation", "values": [{"measurement": "growth of hematopoietic progenitors (pro-hematopoietic activity, colony numbers)", "setting": "[6]; listed as highly purified (to homogeneity) hCG heterodimer", "value": "no pro-hematopoietic activity"}]}]}
